System: WSU-DLCL2 human lymphoma cells
Assay: Efficacy study in WSU-DLCL2 xenograft model
Format: in vivo
Conditions: Compound 44 single agent, 150 mg/kg TID and 225 mg/kg BID; p<0.05

CCN(c1cc(-c2ccc(CN3CCOCC3)cc2)cc(C(=O)NCc2c(C)cc(C)[nH]c2=O)c1C)C1CCOCC1 [Compound 44, N-((4,6-dimethyl-2-oxo-1,2-dihydropyridin-3-yl)methyl)-5-(ethyl (tetrahydro-2H-pyran-4-yl)amino)-4-methyl-4′-(morpholinomethyl)-[1,1′-biphenyl]-3-carboxamide]
tumor volume compared to vehicle treated mice: significantly smaller tumors by volume

From patent publication US11370781B2, “Combination therapy for treating cancer” (Epizyme, Inc., priority 2012, dated 2022)
